Data set [1] deals with C57BL/6 wild-type adult male mice. Put plainly: Voluntary alcohol intake assay (drinking-in-the-dark, 2-bottle choice), wild-type mice. Particulars: wild-type C57BL/6 male mice, i.p. 3 mg/kg and 10 mg/kg, 10% ethanol, 4 hours/day. On the procedure:
Voluntary Alcohol Intake Assay:
C57BL/6 wild-type adult male mice were exposed to a limited access (4 hours/day), 2-bottle choice (water vs. 10% ethanol), drinking-in-the-dark (DID) protocol during their active cycle (dark phase) until the alcohol intake was stable. Bottle weights were measured directly before and after the 4-hour access period to the second decimal point to determine fluid intake during this access period. Weights of bottles were corrected for any spillage with fluid bottles placed on empty cages. After three weeks of exposure to the drinking model described above, alcohol and water intake on the day of infusion (Friday) was compared with the average alcohol intake over the preceding three days (Tuesday-Thursday) to determine if drug injection altered voluntary alcohol intake. Mice were injected with i.p. saline for vehicle measurements in week 4 and the following weeks with increasing doses of i.p. injected Example 1; 3 mg/kg in week 5 and 10 mg/kg in week 6. […] . Group size was 10 animals. Data were plotted using GRAPHPAD PRISM 5 software.

In data set [2] the test system is wild-type C57BL/6 adult male mice. Nature of the data set: Locomotor activity in locomotor boxes. The following applies: wild-type C57BL/6 male mice, i.p. 3 mg/kg, tracked for 90 minutes. On the procedure: Square locomotor boxes from Med Associates (L 27.3 cm×W 27.3 cm×H 20.3 cm, St. Albans Vt., USA) were used to monitor locomotor activity during the active/dark phase of wild-type C57BL/6 adult male mice. Animals were habituated to the locomotor boxes for 60 minutes one day prior to drug testing. […] . Group size was 5-6 animals. Data were plotted using GRAPHPAD PRISM 5 software.

SMILES strings stand for the structures. Only a part of the results on these compounds is given; other tests are left out.

On to `COc1cccc(N(C(=O)c2cc3ccccc3s2)C2CCN(C)CC2)c1`, for which, in data set [1], the “voluntary alcohol intake (alcohol use)” value was “dose-dependently decreased alcohol use”. For the same molecule, the “locomotor activity compared to saline” value in data set [2] was “did not differ in their locomotor activity”.

These data come from US11787787B2.
